By UniProt entry, the sequences of proteins in these tests, tags left out. Where a name states a change or a piece, a line headed by the entry shows the natural chain unless it says otherwise.
UniProt P48736: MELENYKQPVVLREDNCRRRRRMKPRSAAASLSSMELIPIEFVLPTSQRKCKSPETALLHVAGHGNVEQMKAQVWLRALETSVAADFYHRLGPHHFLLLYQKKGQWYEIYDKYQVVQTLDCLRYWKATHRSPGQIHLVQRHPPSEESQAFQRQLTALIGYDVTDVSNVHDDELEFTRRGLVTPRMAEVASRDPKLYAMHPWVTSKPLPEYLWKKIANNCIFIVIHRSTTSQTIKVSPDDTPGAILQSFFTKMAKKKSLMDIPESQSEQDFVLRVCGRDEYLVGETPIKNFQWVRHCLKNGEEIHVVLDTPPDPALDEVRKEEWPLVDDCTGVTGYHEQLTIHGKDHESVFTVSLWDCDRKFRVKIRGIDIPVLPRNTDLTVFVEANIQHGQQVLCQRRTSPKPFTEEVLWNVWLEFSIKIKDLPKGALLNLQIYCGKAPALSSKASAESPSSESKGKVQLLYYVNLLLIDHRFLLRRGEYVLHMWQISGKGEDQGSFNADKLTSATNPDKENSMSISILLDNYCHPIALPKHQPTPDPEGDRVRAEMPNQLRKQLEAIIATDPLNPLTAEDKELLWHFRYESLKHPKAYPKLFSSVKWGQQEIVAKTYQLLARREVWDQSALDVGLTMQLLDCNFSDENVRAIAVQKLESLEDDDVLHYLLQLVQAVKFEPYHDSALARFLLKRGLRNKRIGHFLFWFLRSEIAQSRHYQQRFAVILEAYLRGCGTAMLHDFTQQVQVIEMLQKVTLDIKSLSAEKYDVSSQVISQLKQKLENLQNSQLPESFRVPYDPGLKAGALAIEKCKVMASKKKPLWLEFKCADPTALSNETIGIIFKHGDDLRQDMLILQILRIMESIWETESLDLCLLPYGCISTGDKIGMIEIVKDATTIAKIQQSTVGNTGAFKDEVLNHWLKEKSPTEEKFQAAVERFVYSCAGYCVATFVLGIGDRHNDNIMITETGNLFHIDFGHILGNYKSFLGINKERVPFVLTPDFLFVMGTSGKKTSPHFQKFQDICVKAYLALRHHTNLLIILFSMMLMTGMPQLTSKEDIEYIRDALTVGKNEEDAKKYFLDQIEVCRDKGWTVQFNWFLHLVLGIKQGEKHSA

According to patent US8153389B2, “Methods for the identification of PI3K interacting molecules and for the purification of PI3K” (CellZone AG, priority 2006, dated 2012):

Assays:
[1] = target: T1, PI3K gamma (Homo sapiens, UniProt P48736); assay: Elution assay: PI3K gamma eluted from immobilized phenylthiazole ligand 1 (MOLT-4 lysate, dot blot)
[2] = target: T1, PI3K gamma; assay: Competitive binding assay in MOLT-4 cell lysate with the phenylthiazole ligand 1 affinity matrix

Compound: O=c1cc(N2CCOCC2)oc2c(-c3ccccc3)cccc12 [Compound 1]
- IC50 [1]: > 100 µM
- IC50 [2]: > 30 µM
